The text below walks through data of paper PMC2254147, “Novel Triazine JPC-2067-B Inhibits Toxoplasma gondii In Vitro and In Vivo” (PLoS Neglected Tropical Diseases, 2008).

Protein sequences, listed by entry. Tags and fused reporters are not part of them.
UniProt Q8I1R6, entry or part of it: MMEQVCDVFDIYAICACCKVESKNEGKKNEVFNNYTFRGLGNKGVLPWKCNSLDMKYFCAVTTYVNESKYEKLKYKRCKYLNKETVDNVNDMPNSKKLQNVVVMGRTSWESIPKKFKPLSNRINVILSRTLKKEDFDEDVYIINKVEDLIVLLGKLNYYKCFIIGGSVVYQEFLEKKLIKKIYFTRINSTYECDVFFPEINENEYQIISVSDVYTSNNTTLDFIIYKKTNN

The target in this assay is PfDHFR (Plasmodium falciparum, UniProt Q8I1R6). Kind of assay: Plate reader DHFR assay, recombinant P. falciparum DHFR. It counts as biochemical. The source says: DHFR from T. gondii prepared as above was also directly compared to purified recombinant P. falciparum DHFR (pfDHFR) and purified recombinant human DHFR (hDHFR). The hDHFR was from pDFR plasmid. The enzyme was purified following ammonium sulfate precipitation, methotrexate:agarose affinity chromatography, and finally a Superdex 200 size exclusion column. The pfDHFR isolation methods were those reported previously,[44]. […] The same buffer as used in the other assays comparing T. gondii DHFR with DHFRs from rat liver P. carinii and M. avium intracellulare was used but the maximal activity, temperature, and length of observation were adjusted for assays on the specific plate reader. […] The reaction was setup at 23°C, the plate loaded, and the OD340 recorded at 20 second intervals for 10 minutes. The first 8 minutes were used to generate linear fit slopes in Excel. […] Results are expressed as the percent of control activity versus log concentration of inhibitor. Prism 5.0 was used to generate curves from 12 different concentrations of inhibitor using a non-linear fit method.

`CCc1nc(N)nc(N)c1-c1ccc(Cl)cc1` [JPC-1090-A-1, Pyrimethamine]: the IC50 – broadly, the concentration that gives 50% inhibition – amounted to 0.042 µM (IC50 for P. falciparum DHFR, text to Figure 5 and Table 2); 0.0422 µM (PfDHFR IC50, recombinant, 23°C, (95% Confidence Intervals)).
